# Experimental data: PubChem BioAssay AID1259374 (The Scripps Research Institute Molecular Screening Center, 2018)
# By UniProt entry, the sequences of proteins in these tests, tags left out.
# UniProt O75030, whole entry: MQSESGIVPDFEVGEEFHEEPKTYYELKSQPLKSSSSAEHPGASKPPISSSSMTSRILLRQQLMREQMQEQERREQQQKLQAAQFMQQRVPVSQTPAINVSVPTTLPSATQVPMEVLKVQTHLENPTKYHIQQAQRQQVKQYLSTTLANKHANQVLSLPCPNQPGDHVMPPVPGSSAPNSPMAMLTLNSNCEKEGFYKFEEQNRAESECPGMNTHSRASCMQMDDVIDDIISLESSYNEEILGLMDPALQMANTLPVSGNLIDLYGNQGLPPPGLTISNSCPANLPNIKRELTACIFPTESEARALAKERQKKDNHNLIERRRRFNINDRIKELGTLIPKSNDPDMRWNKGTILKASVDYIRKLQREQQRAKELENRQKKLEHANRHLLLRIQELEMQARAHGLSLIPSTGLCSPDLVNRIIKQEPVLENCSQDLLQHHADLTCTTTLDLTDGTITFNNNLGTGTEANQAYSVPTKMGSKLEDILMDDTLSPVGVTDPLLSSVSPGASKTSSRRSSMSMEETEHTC
# This is a selection; strong and weak results do not stand in their true shares. Some results for these compounds are left out of this collection, so the calls shown say nothing about other tests. Activity calls are given as the source filed them. Cut-off read from the data, not from the text of the source: active = inhibition above about 50%; inactive = the rest.
# Molecular target: Microphthalmia-associated transcription factor (Homo sapiens) (UniProt O75030)
# Test: MITF inhibitors, primary screen, biochemical, AlphaScreen, human (AID 1259374);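 note: 0% = vehicle wells with protein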
# Details: AlphaScreen MITF homodimerization, bead proximity signal; at 2.6 µM; stronger effect = higher value
row,SMILES,inhibition
1,O=C(c1ccco1)N(Cc1ccco1)C1CCN(CCc2cccs2)CC1,inactive: 0.42%
2,CC(=O)N(Cc1cccnc1)C1CCN(CCc2cccs2)CC1,inactive: 19.1%
